From PubChem BioAssay AID2451 (National Center for Advancing Translational Sciences (NCATS), 2010)
The list shows a part of the results, in another mix than the full data. Results filed as inconclusive are left out. Active and inactive are the calls of the source. Calls follow the shape of the dose curve; as a rule, active = well fitted inhibition curve with a large enough effect; inconclusive = small, poorly fitted or top-dose-only effect, or effect the other way; inactive = flat fitted curve, though single readings scatter.

Amino acid sequences for entries named in this document (tags omitted). A change or cut given only in a name is not applied to a line headed by its entry.
UniProt A8B2U2: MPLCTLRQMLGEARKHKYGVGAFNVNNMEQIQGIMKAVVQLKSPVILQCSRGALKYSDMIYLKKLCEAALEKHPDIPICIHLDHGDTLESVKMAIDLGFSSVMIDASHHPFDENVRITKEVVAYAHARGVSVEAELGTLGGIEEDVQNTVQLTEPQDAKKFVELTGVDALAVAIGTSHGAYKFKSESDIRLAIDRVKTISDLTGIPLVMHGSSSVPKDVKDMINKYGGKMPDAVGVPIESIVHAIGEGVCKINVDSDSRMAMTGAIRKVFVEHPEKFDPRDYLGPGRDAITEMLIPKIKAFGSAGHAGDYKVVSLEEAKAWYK

Biological target: Fructose-bisphosphate aldolase (Giardia intestinalis (strain ATCC 50803 / WB clone C6)) (UniProt A8B2U2)
Assay: qHTS Assay for Inhibitors of Fructose-1,6-bisphosphate Aldolase from Giardia Lamblia; also: nearly all actives have a fitted effect of over 55% in size
Settings: purified Giardia FBPA; series mostly up to 59.6 µM; activity, negative = inhibition: at the top concentration
% is scaled to controls: 0 for no effect and ±100 for the full control effect; potency is read from the fitted curve at half-maximal effect.

Row | SMILES | activity, negative = inhibition | Potency
1 | CC(=O)N1C2C3N(C(C)=O)C1C1N(C(C)=O)C(C(N1C(C)=O)N3C(C)=O)N2C(C)=O | inactive: 3.93% | 
2 | Cc1ccc(NP(=O)(Oc2ccccc2)Oc2ccccc2)nc1 | inactive: 0.913% | 
3 | COc1ccc(C2=NCC(CBr)S2)cc1 (configuration not stated) | inactive: -8.49% | 
4 | CN(C)C(=O)OCCc1n(C)cc[n+]1C | inactive: 2.52% | 
5 | CC(C)=N/N=C(\N)N[N+](=O)[O-] | inactive: -9.14% | 
6 | CC(=O)C1=CCCC2CCC1N2 (configuration not stated) | inactive: -8.3% | 
7 | Nc1ccc([As](=O)(O)c2ccc(N)cc2)cc1 | inactive: 4.48% | 
8 | CCN(/C(=N/P(=O)(N1CCOCC1)N1CCOCC1)N1CCOCC1)c1ccc(OC)cc1 | inactive: 6.63% | 
9 | O=C(Nc1cc([As](=O)(O)O)ccc1O)c1ccccc1 | inactive: -18.2% | 
10 | O=[N+]([O-])c1cccc(NC2=NCC(CBr)S2)c1 (configuration not stated) | inactive: -4.4% | 
11 | O=C(O)CNc1ccc([As](=O)(O)O)cc1 | inactive: -0.3% | 
12 | CC(C)(C)C(=O)NC(Sc1ccncn1)C(Cl)(Cl)Cl (configuration not stated) |  | active: 3.15 µM
13 | Cc1ccc(NP(=O)(Oc2ccccc2F)Oc2ccccc2F)nc1 | inactive: -3.02% | 
14 | CN(C(=O)Cc1ccc(Cl)c(Cl)c1)[C@H]1CCCC[C@@H]1N1CCCC1 |  | inactive
15 | CCOP(=O)(Nc1ccccc1)OCC |  | inactive
16 | Cc1cc(SC(NC(=O)c2ccc(F)cc2)C(Cl)(Cl)Cl)ncn1 (configuration not stated) |  | active: 3.54 µM
17 | O=C(O)c1ccccc1[As](=O)(O)O | inactive: 0.612% | 
18 | CC(=O)Nc1ccc([As](=O)(O)O)cc1 | inactive: 2.58% | 
19 | O=P(Nc1nc2ccc(Cl)cc2s1)(c1ccccc1)c1ccccc1 | inactive: 9.13% | 
20 | CCN(N=Nc1nonc1N)c1nonc1N | inactive: 4.84% | 
21 | Cc1ccc(OP(=O)(Nc2nccs2)Oc2ccc(C)cc2)cc1 | inactive: -3.31% | 
22 | COc1ccccc1OP(=O)(Nc1ccc(C)cn1)Oc1ccccc1OC | inactive: -1.49% | 
23 | Clc1ccc(Cl)c(NC2=NCC(CBr)S2)c1 (configuration not stated) | inactive: -13.7% | 
24 | CN1CCCC(OC(=O)C(c2ccccc2)c2ccccc2)C1 (configuration not stated) | inactive: -2.51% | 
25 | NC(=O)c1cc([N+](=O)[O-])cc([N+](=O)[O-])c1N | inactive: 6.59% | 
26 | Cc1ccc(N/C(=N/P(=O)(N2CCOCC2)N2CCOCC2)N2CCOCC2)cc1 | inactive: 2.59% | 

Row | SMILES | activity, negative = inhibition | Potency
27 | CC(C)CC(=O)NC(Sc1ccc(Cl)cc1)C(Cl)(Cl)Cl (configuration not stated) | inactive: 3.45% | 
28 | Nc1cc(N)c2nonc2c1[N+](=O)[O-] | inactive: -19.6% | 
29 | Cc1c2non([O-])c-2c(C)[n+](=O)[n+]1[O-] |  | active: 3.54 µM
30 | O=C(NC(Sc1ccncn1)C(Cl)(Cl)Cl)c1ccccc1 (configuration not stated) |  | active: 3.54 µM
31 | Oc1ccccc1CNc1ccccn1 | inactive: -1.87% | 
32 | CC(C)(C)C(=O)NC(Sc1ccccc1)C(Cl)(Cl)Cl (configuration not stated) | inactive: -0.673% | 
33 | CCOc1ccc(C2=NCC(CBr)S2)cc1 (configuration not stated) | inactive: -21.4% | 
34 | O=P1(Nc2nc3ccc(Cl)cc3s2)COc2ccccc2O1 (configuration not stated) | inactive: 21.4% | 
35 | CC(=O)Nc1ccc(Oc2c([N+](=O)[O-])cc([N+](=O)[O-])cc2[N+](=O)[O-])cc1 | inactive: 25.6% | 
36 | CC(=O)Nc1ccc([As](=O)(O)O)c(O)c1 | inactive: 0.268% | 
37 | CC(=O)c1ccc(N2CC2c2ccncc2)cc1 (configuration not stated) | inactive: 0.41% | 
38 | C[C@@H]1C=CCP(=O)(Oc2ccccc2)O1 (some centres not stated) | inactive: -10.1% | 
39 | C[C@H]1OP(=O)(Oc2ccccc2)C[C@@H]2O[C@@H]21 (some centres not stated) | inactive: 0.424% | 
40 | CCNC(=S)/N=C(\N)N[N+](=O)[O-] | inactive: -29.5% | 
41 | O=C(NC1CCS(=O)(=O)C1)NP(=S)(Oc1ccccc1)Oc1ccccc1 (configuration not stated) | inactive: -0.297% | 
42 | Cc1ccc(NP(=O)(Oc2cccc(C)c2)Oc2cccc(C)c2)nc1 | inactive: -0.397% | 
43 | CCOC(=O)NC(Sc1ccccc1)C(Cl)(Cl)Cl (configuration not stated) | inactive: -0.0123% | 
44 | c1ccc(-c2nn[nH]n2)c(-c2nn[nH]n2)c1 | inactive: 21.4% | 
45 | CN(C)C(=O)Oc1noc2ccccc12 | inactive: 12.3% | 
46 | O=c1c2cc([N+](=O)[O-])ccc2[nH]c2c([N+](=O)[O-])cc([N+](=O)[O-])cc12 | inactive: -27.5% | 
47 | Cc1ccccc1OP(=O)(Nc1ccccn1)Oc1ccccc1C | inactive: -4.2% | 
48 | CC(=O)NC(SC(=S)N(CC(C)C)CC(C)C)C(Cl)(Cl)Cl (configuration not stated) | inactive: 7.87% | 
49 | Cc1ccc(OP(=O)(Nc2ccccn2)Oc2ccc(C)cc2)cc1 | inactive: 1.27% | 
50 | COC(=O)c1cc2c(s1)N=C(c1ccccc1)N(C)P2(=O)N1CCOCC1 (configuration not stated) | inactive: 9.26% | 
51 | CCC(=O)N1C2C3N(C(=O)CC)C1C1N(C(=O)CC)C(C(N1C(=O)CC)N3C(=O)CC)N2C(=O)CC | inactive: 1.4% | 
52 | CN(C(=O)Cc1ccc(Cl)c(Cl)c1)[C@@H]1CCCC[C@@H]1N1CCCC1 | inactive: -0.499% | 

Row | SMILES | activity, negative = inhibition | Potency
53 | O=C(OC1CN2CCC1CC2)c1ccccc1 (configuration not stated) | inactive: -0.869% | 
54 | C[C@H]1OP(=O)(Oc2ccccc2)[C@H](O)[C@H](O)[C@H]1N=[N+]=[N-] (some centres not stated) | inactive: 2.31% | 
55 | O=P(Nc1nc2ccccc2s1)(c1ccccc1)c1ccccc1 | inactive: -7.72% | 
56 | O=P(Nc1ccccn1)(c1ccc(Br)cc1)c1ccc(Br)cc1 | inactive: 1.93% | 
57 | CN(C)C1(CNC(=O)c2ccc(Cl)c(S(N)(=O)=O)c2)CCCCC1 | inactive: -6.22% | 
58 | Nc1ccc([As](=O)(O)c2ccc([N+](=O)[O-])cc2)cc1 | inactive: 1% | 
59 | O=C(OC1CN2CCC1CC2)c1cccc(Cl)c1 (configuration not stated) | inactive: 0.696% | 
60 | O=[N+]([O-])c1ccc(O)c(/C=N/Nc2ccc([N+](=O)[O-])cc2[N+](=O)[O-])c1 | inactive: -7.62% | 
61 | CC(=O)NC(SC(=S)N(C)C)C(Cl)(Cl)Cl (configuration not stated) | inactive: 0.121% | 
62 | O=[N+]([O-])c1ncn(CCn2cnc([N+](=O)[O-])n2)n1 | inactive: -28.4% | 
63 | O=[As](O)(c1ccccc1)c1ccc(O)cc1 | inactive: -1.77% | 
64 | c1nnnn1CCn1cnnn1 | inactive: 6.52% | 
65 | CCC(C)(OOC(C)(C)C)OOC(C)(C)C | inactive: 8.15% | 
66 | CC(C)C(=O)NC(Sc1ccccc1)C(Cl)(Cl)Cl (configuration not stated) | inactive: 1.14% | 
67 | O=P(Nc1nccs1)(c1ccccc1)c1ccccc1 | inactive: -1.22% | 
68 | CC(C)(C)C(=O)NC(Sc1ncccn1)C(Cl)(Cl)Cl (configuration not stated) |  | active: 6.29 µM
69 | Clc1n[nH]nc1-c1nn[nH][15n]1 | inactive: -24% | 
70 | CN(CCCl)Cc1cc(Cl)c(NC2=NCCN2)c(Cl)c1 | inactive: -1% | 
71 | CCOP(=O)(Nc1ccc(C)cn1)OCC | inactive: 2.62% | 
72 | O=P1(Nc2ccccn2)COc2ccccc2OC1 | inactive: 5.08% | 
73 | CCC1=CC2Cc3nc4ccc(Cl)cc4c(N)c3C(C1)C2 (configuration not stated) | inactive: -0.113% | 
74 | O=[As](O)(c1ccccc1Br)c1ccccc1Br | inactive: 5.82% | 
75 | CC(C)/C=N\N=C(\N)N[N+](=O)[O-] | inactive: -5.28% | 
76 | CN(C(=O)Cc1ccc(Cl)c(Cl)c1)[C@@H]1CCCC[C@H]1N1CCCC1 |  | inactive
77 | O=C(/C=C/c1ccccc1)OC1CN2CCC1CC2 (configuration not stated) | inactive: -1.58% | 
